Experimental data published in US20070078092A1, “Cell permeable conjugates of peptides for inhibition of protein kinases” (priority 2003, published 2007).

Amino acid sequences for entries named in this document (tags omitted).
UniProt P31749, whole entry, species assumed: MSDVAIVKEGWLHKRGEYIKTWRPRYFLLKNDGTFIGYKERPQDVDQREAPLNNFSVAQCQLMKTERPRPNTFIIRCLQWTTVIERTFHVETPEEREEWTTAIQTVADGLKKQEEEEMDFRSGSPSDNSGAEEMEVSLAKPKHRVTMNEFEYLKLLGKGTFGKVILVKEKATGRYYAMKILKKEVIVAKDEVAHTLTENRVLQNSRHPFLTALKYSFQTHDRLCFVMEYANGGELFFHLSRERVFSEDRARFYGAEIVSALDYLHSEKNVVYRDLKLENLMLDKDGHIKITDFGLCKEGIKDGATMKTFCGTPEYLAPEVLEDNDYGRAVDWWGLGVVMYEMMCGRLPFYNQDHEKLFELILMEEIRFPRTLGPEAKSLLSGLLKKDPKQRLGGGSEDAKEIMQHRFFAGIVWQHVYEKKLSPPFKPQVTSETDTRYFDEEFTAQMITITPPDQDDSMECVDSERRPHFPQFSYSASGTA

Legend:
PKB = biological target: T1, PKB (Homo sapiens, UniProt P31749); test: PKB in vitro kinase activity assay; assay type: biochemical; details: read-out: in vitro PKB inhibition IC50; Table 3, assay A2
T1 construct: His; HA; made in house

normal cells = test: Safety to normal cells in vitro; assay type: cell-based
From the text: Several cancer cell lines were used to determine the activity of PKB inhibitor compounds in intact cells. The human prostate carcinoma cell lines, PC-3 and LNCaP. The human acute T cells leukemia cell line, Jurkat. Human breast carcinoma cell lines: MCF-7 and MDA468 and renal adenocarcinoma cell 786-O. LNCaP,MDA468, 786-O and Jurkat cell lines express high basal level of activated PKB. PC-3 expresses moderate level of activated PKB. MCF-7 expresses low but inducible level of activated PKB. Control cells are PBLs, normal peripheral blood lymphocytes which obtained from normal donors (blood bank) and MCF10F which is a non tumorogenic breast cell line. The control cells are used to compare the effect of the protein kinase inhibitors on the tested cancer cells and the normal cells.
Table 9 represents the cell death induced by the protein kinase inhibitors in prostate cancer cell lines vs. normal cells. The magnitude of cell death induced is in direct correlation with the levels of activated PKB in the various cells, as depicted in FIG. 12. […] Levels are in direct correlation with the magnitude of cell death induced by our inhibitors, as depicted in table 9.

Hep G2 cells = test: In vitro metabolism in hepatic carcinoma cells (LC-MS); assay type: in vitro ADME
Procedure: In addition, PTR 6320 was analyzed by LC-MS for in vitro metabolism in hepatic carcinoma cells. […] Hep G2 cells were incubated with 30 μM of PTR 6320 for 6 hours and peptides were extracted from the supernatants and the pellets of the cells. Samples were analyzed by LC-MS using pep 24 C18 Vydac 1.0*150 mm column in eluent gradient of MeCN:water (+0.1%TFA) with MS ESI detector in splitless mode. […] This indicates slow degradation of PTR 6320 in hepatic cells implying that peptide may be retained in the system enough time for efficient distribution.

MTD determination = assay type: in vivo; details: assay C1, mice
Procedure: Balb/C mice (male, 4-6 weeks old from Harlan Co. Israel) were used to determine the MTD.
In addition, acute and chronic MTD were determined. As a first step, the acute MTD was determined after one IP injection of several dosages of 160, 80, 40, 20 and 10 mg/Kg body weight. For further testing the chronic MTD, mice were IP injected with 50%, 25% and 12.5% of the acute MTD daily for 3 consecutive weeks. Mice were daily monitored for general health status for the treatment period and 3 more additional weeks. At the end of the experiment full autopsy was preformed.

With “Arg-Gln-Ile-Lys-Ile-Trp-Phe-Gln-Asn-Arg-Arg-Met-Lys-Trp-Lys-Lys-6154 [Peptide AB60025-2]” as the substance, how does the IC50 (PKB) read?
Its IC50 is 1000 nM.

For “Arg-Gln-Ile-Lys-Ile-Trp-Phe-Gln-Asn-Arg-Arg-Met-Lys-Trp-Lys-Lys-6184 [Peptide AB60025-4]”, which IC50 (PKB) is on record?
Its IC50 is 200 nM.

For “Cholesteryl-O—CO-(DLys)3-Arg-Pro-Arg-Nva-Tyr-Dap-Hol-NH2 [PTR 6320]”, which “concentration safe to normal cells” value (normal cells) is on record?
The value was 40 µM.

And the “undegraded peptide remaining in Hep G2 cells” value (Hep G2 cells; 30 μM, 6 hours)?
Its value is “still substantial amount of undegraded peptide”.

What about the “in vitro metabolism in hepatic carcinoma cells” value (Hep G2 cells; time course) of the same substance?
Its value is “initial drug metabolism after 1 hour and advanced metabolism after 24 hours”.

With “Cholesteryl-O—CO-Arg-Pro-Arg-Nva-Tyr-Dap-Hol-NH2 [PTR 6164]” as the substance, how does the “MTD (maximal tolerated dose)” value (MTD determination) read?
The value was “above 130 mg/kg”.
